Each structure is given as a SMILES string. Where two headings read alike, the source gives them in different places.

Results on 9 molecules are retold here after paper PMC4885109, “Rapid Discovery and Structure–Activity Relationships of Pyrazolopyrimidines That Potently Suppress Breast Cancer Cell Growth via SRC Kinase Inhibition with Exceptional Selectivity over ABL Kinase” (Journal of Medicinal Chemistry, 2016).

For one series, the system named is MCF7 cells. The series is described as follows: Dose-response viability assay (PrestoBlue), MCF7. The settings on record: Homo sapiens, MCF7, 120 h, read-out: EC50 (MCF7), 5 d, PrestoBlue cell viability. In kind it is cell-based.
Series [1] has as its system Tg(brn3c:mGFP) zebrafish embryos. In kind it is in vivo. The settings on record: treatment for 2 d in the neuromast assay.
Series [2] addresses SRC; recombinant human full length (Homo sapiens, UniProt P12931). The settings on record: Michaelis-Menten and Lineweaver-Burk plots.
Series [3] concerns phospho-SRC^Y416 and phospho-FAK in MDA-MB-231 cells. The settings on record: Western blot. For orientation: In western blotting, separated proteins are transferred to a membrane and probed.
The test system of series [4] is phospho-SRC^Y416 and phospho-FAK in MCF7 cells. The settings on record: Western blot.
The subject of series [5] is phospho-FAK^Y861 in SYF cells.
A further series concerns MDA-MB-231 cells. The settings on record: 10 nM, from 6 h.
For series [6] the following is noted: human plasma, 1 μM, 2 h, 37 °C.
For series [7] the following is noted: mouse plasma, 1 μM, 2 h, 37 °C.
The conditions of series [8]: rat plasma, 1 μM, 2 h, 37 °C.
A short description of series [9]: in vitro. The settings on record: human, plasma.
Series [10] is described as follows: in vitro. The settings on record: rat, plasma.
Series [11] in a line: Stability in primary hepatocytes, mouse.
Series [12] relates to SYF murine embryonic fibroblasts (SRC-/-, YES-/-, FYN-/-). The series is described as follows: Dose-response proliferation study in SYF cells. The settings on record: compared with dasatinib.

For `COc1cc(-c2nn(CCN3CCC(N(C)C)CC3)c3ncnc(N)c23)ccc1NC(=O)OC(C)(C)C` [11a, tert-Butyl N-[4-[4-amino-1-[2-[4-(dimethylamino)-1-piperidyl]ethyl]pyrazolo[3,4-d]pyrimidin-3-yl]-2-methoxy-phenyl]carbamate], in the series with MCF7 cells, the 50% effective concentration (EC50) came out at 31 nM. For the same molecule, the “effect on development of the embryos” value in [1] is recorded as “minimal effect on the development of the embryos”. In series [2], the “mode of SRC inhibition” value was “competitive with respect to ATP”. Moreover, in series [3], the “total SRC level” value is on record as “did not increase the total levels of SRC”. The “inhibition of SRC autophosphorylation observed down to” value in [4] was found to be 10 nM. Besides, the “FAK activity (phospho-FAK) in cells lacking SRC” value in series [5] (SYF cells, 3-100 nM) is on record as “unaffected”. Also, the “cell motility (scratch-wound)” value in the series on MDA-MB-231 cells was “significantly reduced cell motility”. Also, the “zebrafish heart development under short treatment” value in the series with zebrafish embryos (500 µM added 2 dpf, 4 h, then 48 h in fresh media) is “normal heart development and no toxicity”. Further, the “plasma stability (recovery)” value in series [6], in series [7] and in [8] was “full plasma stability” throughout. In addition, the fraction unbound at 24 h, 10 µM turned out to be 0.191 in the series “in vitro [9]” and 0.094 in the series “in vitro [10]”. For the same molecule, the “decrease in half-life in mice hepatocytes versus human hepatocytes” value in series [11] is given as 7 fold. In addition, the “antiproliferative activity in SYF cells” value in series [12] was “significantly less antiproliferative activity in SYF cells than dasatinib”.
Take `COc1cc(-c2nn(CCN3CCC(N4CCCC4)CC3)c3ncnc(N)c23)ccc1NC(=O)OC(C)(C)C` [12d]: in the series with MCF7 cells, the EC50 is 77 nM.
Regarding `COc1cc(-c2nn(CCN3CCC(N4CCCCC4)CC3)c3ncnc(N)c23)ccc1NC(=O)OC(C)(C)C` [12e], the EC50 in the series on MCF7 cells was determined as 209 nM.
In the case of `COc1cc(-c2nn(CCN3CCC(N(C)C)CC3)c3ncnc(N)c23)ccc1NC(=O)NC(C)(C)C` [12i], the concentration giving a half-maximal response (EC50) with MCF7 cells stood at 35500 nM.
With `COc1cc(-c2nn(CCN3CCC(N(C)C)CC3)c3ncnc(N)c23)ccc1NCc1ccccc1` [12m, 3-[4-(benzylamino)-3-methoxy-phenyl]-1-[2-[4-(dimethylamino)-1-piperidyl]ethyl]pyrazolo[3,4-d]pyrimidin-4-amine], the EC50 in the series on MCF7 cells was found to be 580 nM.
Regarding `CN(C)C1CCN(CCn2nc(-c3ccc(CC(=O)OC(C)(C)C)cc3)c3c(N)ncnc32)CC1` [12w], the EC50 in the series on MCF7 cells was 2580 nM.
As for `COc1cc(-c2nn(CCN3CCC(N(C)C)CC3)c3ncnc(N)c23)ccc1CC(=O)OC(C)(C)C` [12x], in the series on MCF7 cells, the 50% effective concentration (EC50) amounted to 415 nM.
`COc1cc(-c2nn(C(C)C)c3ncnc(N)c23)ccc1NC(=O)OC(C)(C)C` [PP20]: the “zebrafish heart development under short treatment” value in the series on zebrafish embryos (zebrafish, in vivo) is recorded as “severe cardiotoxicity”.
Consider `Cc1nc(Nc2ncc(C(=O)Nc3c(C)cccc3Cl)s2)cc(N2CCN(CCO)CC2)n1.O` [dasatinib], for which the “FAK activity (phospho-FAK) in cells lacking SRC” value in series [5] is listed as “unaffected”. Moreover, the “cardiotoxic phenotype in zebrafish embryos” value in the series on zebrafish embryos (1–10 μM) is recorded as “patent cardiotoxic phenotype”. The “toxicity in zebrafish embryos” value with zebrafish embryos (zebrafish, in vivo) was “severe cardiotoxicity and death of most embryos”.

What is called EC50 is the midpoint of the concentration-response curve. What is called fraction unbound is free concentration divided by total concentration.
